The species entered for this test is Homo sapiens. Briefly: Potency index, ratio of GI50 for vatalanib to GI50 for test compound for antiproliferative activity against HMVEC incubated for 4 days by MTT assay. It is filed as functional.

On to `COc1cc2c(Nc3ccc(F)c(Cl)c3)nnnc2cc1OCCCCl`, for which the RatioGI50 lay within 4 to 10.

For the origin of these results see ChEMBL document CHEMBL4229324, “Synthesis and antitumor activities of 1,2,3-triazines and their benzo- and heterofused derivatives” (Eur J Med Chem, 2017).
